Laboratory results taken from ChEMBL document CHEMBL1146752, “Oxamyl dipeptide caspase inhibitors developed for the treatment of stroke” (Bioorg Med Chem Lett, 2004).

Chains of the proteins cited; added tags and fusions are not shown. Lines headed by an entry give the natural chain unless they say otherwise; changes in a name come on top.
UniProt Q14790: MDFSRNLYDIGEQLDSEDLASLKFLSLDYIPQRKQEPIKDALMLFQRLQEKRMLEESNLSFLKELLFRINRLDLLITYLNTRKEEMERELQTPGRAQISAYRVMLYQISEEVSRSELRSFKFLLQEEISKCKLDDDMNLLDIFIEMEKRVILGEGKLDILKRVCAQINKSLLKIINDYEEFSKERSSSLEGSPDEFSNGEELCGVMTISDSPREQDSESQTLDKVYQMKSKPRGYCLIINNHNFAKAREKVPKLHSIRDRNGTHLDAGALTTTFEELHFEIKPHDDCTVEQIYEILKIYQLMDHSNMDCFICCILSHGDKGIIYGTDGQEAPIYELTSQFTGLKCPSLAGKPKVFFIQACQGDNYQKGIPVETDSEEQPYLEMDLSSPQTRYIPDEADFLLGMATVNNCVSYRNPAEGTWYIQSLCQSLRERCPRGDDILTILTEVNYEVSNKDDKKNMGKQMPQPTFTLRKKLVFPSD

What was measured:
[1] = target: T1, Caspase-1 (Mus musculus) (UniProt P29452)
T1 sequence (whole entry): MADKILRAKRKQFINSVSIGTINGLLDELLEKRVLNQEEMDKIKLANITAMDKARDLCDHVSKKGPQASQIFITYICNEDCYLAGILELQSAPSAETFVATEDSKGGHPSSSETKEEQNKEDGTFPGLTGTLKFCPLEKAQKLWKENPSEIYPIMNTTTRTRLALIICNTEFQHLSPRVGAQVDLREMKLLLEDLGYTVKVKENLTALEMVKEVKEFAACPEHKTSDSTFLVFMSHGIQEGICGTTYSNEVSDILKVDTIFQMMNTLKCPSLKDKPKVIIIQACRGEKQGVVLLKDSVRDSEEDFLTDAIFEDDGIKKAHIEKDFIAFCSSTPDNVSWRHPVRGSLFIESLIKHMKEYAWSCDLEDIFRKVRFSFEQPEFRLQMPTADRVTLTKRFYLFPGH

[2] = target: T2, Caspase-3 (Homo sapiens) (UniProt P42574)
T2 sequence (whole entry): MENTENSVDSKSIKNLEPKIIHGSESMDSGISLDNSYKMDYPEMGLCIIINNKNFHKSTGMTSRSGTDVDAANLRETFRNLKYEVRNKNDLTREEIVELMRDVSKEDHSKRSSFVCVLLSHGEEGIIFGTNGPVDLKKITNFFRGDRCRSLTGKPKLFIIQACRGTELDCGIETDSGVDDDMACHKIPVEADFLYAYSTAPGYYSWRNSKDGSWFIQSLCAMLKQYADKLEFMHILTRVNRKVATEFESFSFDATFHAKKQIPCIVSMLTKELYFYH

[3] = target: Caspase-8 (Homo sapiens, UniProt Q14790)
[4] = target: T3, Caspase-6 (Homo sapiens) (UniProt P55212)
T3 sequence (whole entry): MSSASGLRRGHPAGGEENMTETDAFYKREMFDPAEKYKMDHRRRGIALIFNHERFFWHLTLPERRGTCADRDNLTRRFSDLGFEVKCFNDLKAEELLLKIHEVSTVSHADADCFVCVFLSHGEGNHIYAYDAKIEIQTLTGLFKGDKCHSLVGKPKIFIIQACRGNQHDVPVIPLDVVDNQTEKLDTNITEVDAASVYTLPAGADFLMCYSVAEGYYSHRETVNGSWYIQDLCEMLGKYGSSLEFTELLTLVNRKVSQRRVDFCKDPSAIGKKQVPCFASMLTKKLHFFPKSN

Row | SMILES | k3/Ki [1] [M⁻¹ s⁻¹] | k3/Ki [2] [M⁻¹ s⁻¹] | k3/Ki [3] [M⁻¹ s⁻¹] | k3/Ki [4] [M⁻¹ s⁻¹]
1 | CC(C)[C@H](NC(=O)C(=O)Nc1cnccn1)C(=O)N[C@@H](CC(=O)O)C(=O)COc1c(F)c(F)cc(F)c1F | 27600 | 149000 | 50400 | 124000
2 | O=C(O)C[C@H](NC(=O)[C@H](Cc1ccccc1)NC(=O)C(=O)Nc1cccc2ccccc12)C(=O)COc1c(F)c(F)cc(F)c1F | 1.29e+06 | 42300 | 1.03e+06 | 137000
3 | CC(C)C[C@H](NC(=O)C(=O)Nc1cccc2ccccc12)C(=O)N[C@@H](CC(=O)O)C(=O)COc1c(F)c(F)cc(F)c1F |  | 180000 | 177000 | 
4 | CC(C)[C@H](NC(=O)C(=O)Nc1cccc2ccccc12)C(=O)N[C@@H](CC(=O)O)C(=O)COc1ccnc(C(F)(F)F)n1 | 1.07e+06 | 294000 | 60300 | 13300
5 | CC(C)[C@H](NC(=O)C(=O)Nc1c(Cl)c(Cl)cc(Cl)c1Cl)C(=O)N[C@@H](CC(=O)O)C(=O)COc1c(F)c(F)cc(F)c1F | 3.91e+06 | 279000 | 375000 | 98700
6 | CC(C)[C@H](NC(=O)C(=O)Nc1cccc2ccccc12)C(=O)N[C@@H](CC(=O)O)C(=O)COC(=O)c1c(Cl)cccc1Cl |  | 740000 | 119000 | 
7 | CC(C)[C@H](NC(=O)C(=O)Nc1cccc2ccccc12)C(=O)N[C@@H](CC(=O)O)C(=O)COS(=O)c1ccccc1 (stereo partly specified) | 2970 | 342 | 1 | 459
8 | CC(C)[C@H](NC(=O)C(=O)NC12CC3CC(CC(C3)C1)C2)C(=O)N[C@@H](CC(=O)O)C(=O)COc1c(F)c(F)cc(F)c1F | 172000 | 68900 | 155000 | 129000
9 | CC(C)[C@H](NC(=O)C(=O)Nc1ccc2c(c1)CCC2)C(=O)N[C@@H](CC(=O)O)C(=O)COc1c(F)c(F)cc(F)c1F | 289000 | 189000 | 306000 | 146000
10 | COc1cc(CNC(=O)C(=O)N[C@H](C(=O)N[C@@H](CC(=O)O)C(=O)COc2c(F)c(F)cc(F)c2F)C(C)C)cc(OC)c1OC | 315000 | 157000 | 71800 | 120000
11 | O=C(O)C[C@H](NC(=O)C1CCC(NC(=O)C(=O)Nc2cccc3ccccc23)C1)C(=O)COc1c(F)c(F)cc(F)c1F (stereo partly specified) | 767000 | 70600 | 51300 | 8230
12 | CC(C)(C)C(NC(=O)C(=O)Nc1cccc2ccccc12)C(=O)N[C@@H](CC(=O)O)C(=O)COc1c(F)c(F)cc(F)c1F (stereo partly specified) | 2.32e+06 | 98600 | 456000 | 160000
13 | CC(C)[C@H](NC(=O)C(=O)Nc1c(F)c(F)c(F)c(F)c1F)C(=O)N[C@@H](CC(=O)O)C(=O)COc1c(F)c(F)cc(F)c1F | 236000 | 142000 | 66200 | 104000
14 | CC(C)[C@H](NC(=O)C(=O)Nc1ccncc1)C(=O)N[C@@H](CC(=O)O)C(=O)COc1c(F)c(F)cc(F)c1F | 13800 | 54300 | 23100 | 42800
15 | CC(C)[C@H](NC(=O)C(=O)Nc1ccc(I)cc1F)C(=O)N[C@@H](CC(=O)O)C(=O)COc1c(F)c(F)cc(F)c1F | > 1e+07 | 207000 | 84000 | 133000
16 | CC(C)C[C@H](NC(=O)C(=O)Nc1cccc2ccccc12)C(=O)N[C@@H](CC(=O)O)C(=O)COc1c(F)cc(F)cc1F |  | 85300 | 145000 | 
17 | O=C(O)C[C@H](NC(=O)C1Cc2ccccc2N1C(=O)C(=O)Nc1cccc2ccccc12)C(=O)COc1c(F)c(F)cc(F)c1F (stereo partly specified) | 912 | 511 | 1140 | 5580
18 | COC(=O)c1cc(OCC(=O)[C@H](CC(=O)O)NC(=O)[C@@H](NC(=O)C(=O)Nc2cccc3ccccc23)C(C)C)no1 | 532000 | 264000 | 88800 | 12800
19 | O=C(O)C[C@H](NC(=O)[C@H](CCc1ccccc1)NC(=O)C(=O)Nc1cccc2ccccc12)C(=O)COc1c(F)c(F)cc(F)c1F | 2.68e+06 | 62900 | 1.83e+06 | 1.08e+06
20 | CC(C)[C@H](NC(=O)C(=O)Nc1cccc2ccccc12)C(=O)N[C@@H](CC(=O)O)C(=O)COc1c(F)cc(F)cc1F |  | 340000 | 189000 | 

Second part, the compound after the results:

Row | k3/Ki [1] [M⁻¹ s⁻¹] | k3/Ki [2] [M⁻¹ s⁻¹] | k3/Ki [3] [M⁻¹ s⁻¹] | k3/Ki [4] [M⁻¹ s⁻¹] | SMILES
21 | 195000 | 221000 | 248000 | 192000 | CC(C)[C@H](NC(=O)C(=O)Nc1ccccc1F)C(=O)N[C@@H](CC(=O)O)C(=O)COc1c(F)c(F)cc(F)c1F
22 | 259000 | 388000 | 12400 | 219000 | CC(C)[C@H](NC(=O)C(=O)NCc1ccccc1)C(=O)N[C@@H](CC(=O)O)C(=O)COc1c(F)c(F)cc(F)c1F
23 | 442000 | 67700 | 119000 | 54900 | CC(C)[C@H](NC(=O)C(=O)NC(c1ccccc1)c1ccccc1)C(=O)N[C@@H](CC(=O)O)C(=O)COc1c(F)c(F)cc(F)c1F
24 | 1.98e+06 | 564000 | 2.33e+06 | 373000 | CC(C)[C@H](NC(=O)C(=O)Nc1ccccc1I)C(=O)N[C@@H](CC(=O)O)C(=O)COc1c(F)c(F)cc(F)c1F
25 | 106000 | 8.16e+06 | 179000 | 247000 | CC(C)[C@H](NC(=O)C(=O)Nc1ccc(F)cc1)C(=O)N[C@@H](CC(=O)O)C(=O)COc1c(F)c(F)cc(F)c1F
26 | 1.94e+06 | 842000 | 1.63e+06 | 745000 | CC(C)[C@H](NC(=O)C(=O)Nc1ccccc1C(F)(F)F)C(=O)N[C@@H](CC(=O)O)C(=O)COc1c(F)c(F)cc(F)c1F
27 | 43300 | 142000 | 39100 | 191000 | CC(C)[C@H](NC(=O)C(=O)Nc1ccc2cc3ccccc3cc2c1)C(=O)N[C@@H](CC(=O)O)C(=O)COc1c(F)c(F)cc(F)c1F
28 | 1.5e+06 | 78600 | 933000 | 202000 | CC(C)[C@H](NC(=O)C(=O)Nc1ccccc1Oc1ccccc1)C(=O)N[C@@H](CC(=O)O)C(=O)COc1c(F)c(F)cc(F)c1F
29 | 956000 | 268000 | 230000 | 424000 | CC(C)[C@H](NC(=O)C(=O)Nc1ccccc1C(C)(C)C)C(=O)N[C@@H](CC(=O)O)C(=O)COc1c(F)c(F)cc(F)c1F
30 | 625000 | 395000 | 589000 | 484000 | CC(C)[C@H](NC(=O)C(=O)Nc1ccc2ccccc2c1)C(=O)N[C@@H](CC(=O)O)C(=O)COc1c(F)c(F)cc(F)c1F
31 | 345000 | 243000 | 207000 | 317000 | CC(C)[C@H](NC(=O)C(=O)NCCc1ccccc1)C(=O)N[C@@H](CC(=O)O)C(=O)COc1c(F)c(F)cc(F)c1F
32 |  | 289000 | 448000 |  | CC(C)[C@H](NC(=O)C(=O)Nc1cccc2ccccc12)C(=O)N[C@@H](CC(=O)O)C(=O)COc1c(F)c(F)cc(F)c1F
33 | 1.08e+06 | 276000 | 1.31e+06 | 230000 | O=C(O)C[C@H](NC(=O)C(NC(=O)C(=O)Nc1cccc2ccccc12)c1ccccc1)C(=O)COc1c(F)c(F)cc(F)c1F (stereo partly specified)
34 | 1.76e+07 | 260000 | 1.92e+06 | 2.64e+06 | CC(C)[C@H](NC(=O)C(=O)Nc1cccc2cc3ccccc3cc12)C(=O)N[C@@H](CC(=O)O)C(=O)COc1c(F)c(F)cc(F)c1F
35 | 236 | 2 | 0 | 78 | CC(C)[C@H](NC(=O)C(=O)N(C)c1cccc2ccccc12)C(=O)N[C@@H](CC(=O)O)C(=O)COc1c(F)c(F)cc(F)c1F
36 | 369000 | 100000 | 441000 | 98500 | COc1ccccc1NC(=O)C(=O)N[C@H](C(=O)N[C@@H](CC(=O)O)C(=O)COc1c(F)c(F)cc(F)c1F)C(C)C
37 | 1.16e+06 | 187000 | 936000 | 214000 | CC(C)[C@H](NC(=O)C(=O)Nc1ccccc1Cc1ccccc1)C(=O)N[C@@H](CC(=O)O)C(=O)COc1c(F)c(F)cc(F)c1F
38 | 36300 | 78300 | 46300 | 66200 | CC(C)[C@H](NC(=O)C(=O)NOCc1ccccc1)C(=O)N[C@@H](CC(=O)O)C(=O)COc1c(F)c(F)cc(F)c1F
39 | 5.59e+06 | 104000 | 526000 | 124000 | CC(C)[C@H](NC(=O)C(=O)NN(C(=O)c1ccccc1)c1ccccc1)C(=O)N[C@@H](CC(=O)O)C(=O)COc1c(F)c(F)cc(F)c1F
